Literature values, collected in US20200306252A1, “COMPOSITION FOR PREVENTING AND/OR TREATING DEMENTIA” (priority 2019, published 2020).

Conditions: in vivo

bapineuzemab: Pfizer's (BACE) inhibitor, failed clinical trial Phase III in 2012
clinical trial Phase III outcome: no clinical benefit
